Data from patent publication US20250332198A1, “TARGETED ELIMINATION OF SENESCENT CELLS BY GAMMA-DELTA T CELLS” (SENS RESEARCH FOUNDATION, priority 2022, published 2025).

System: human PBMC
Assay: Enrichment of γδT cells from human PBMC, flow analysis after 10 days of expansion
Assay type: cell-based
Details: PBMC treated 24 hours, then IL-2 for 10 days
Experimental: The γδT cells were isolated and enriched from human blood as described in a published protocol using zoledronate and interleukin-2 (see, e.g., Kondo, M. et al. Expansion of human peripheral blood gamma delta T cells using zoledronate. J Vis Exp). The blood samples were obtained from healthy donors (n=5, age range 20-42) in heparin coated vacutainers. All subjects provided informed written consent. […] Blood samples were diluted with 1× PBS (Corning; Cat #21-031-CV) and combined with Lymphocyte Separation Medium (Corning; Cat #25-072-CI) followed by density gradient centrifugation, according to the manufacturer's instructions. The aliquot of PBMC was analyzed for the proportion of the γδ T cells by flow cytometry. […]
Cells were resuspended in 100 μl of PBS. […] Cell viability was determined by Propidium iodide (PI) staining and live cells were gated for downstream analysis. Data were analyzed using Flowlogic software (Miltenyi Biotech, Germany).
The γδT cells were isolated and enriched from human blood using previously published protocol (Kondo et al, Cytotherapy 10, 842-856, 2008). […] The aliquot of PBMC was analyzed for the proportion of the γδT cells by flow cytometry. […]
Cells were resuspended in 100 μl of PBS. […] Cell viability was determined by PI staining and live cells were gated for downstream analysis. Data were analyzed using Flowlogic™ software. […]

Substance: IL-2: recombinant human interleukin-2, control culture without zoledronate
- γδ TCR and CD3-expressing T cells: less than 10%
